Source: paper PMC8802302 (Journal of Medicinal Chemistry, 2021)

The chains behind the UniProt entries cited, without tags or fusion partners. Where a name states a change or a piece, a line headed by the entry shows the natural chain unless it says otherwise.
UniProt Q5S007: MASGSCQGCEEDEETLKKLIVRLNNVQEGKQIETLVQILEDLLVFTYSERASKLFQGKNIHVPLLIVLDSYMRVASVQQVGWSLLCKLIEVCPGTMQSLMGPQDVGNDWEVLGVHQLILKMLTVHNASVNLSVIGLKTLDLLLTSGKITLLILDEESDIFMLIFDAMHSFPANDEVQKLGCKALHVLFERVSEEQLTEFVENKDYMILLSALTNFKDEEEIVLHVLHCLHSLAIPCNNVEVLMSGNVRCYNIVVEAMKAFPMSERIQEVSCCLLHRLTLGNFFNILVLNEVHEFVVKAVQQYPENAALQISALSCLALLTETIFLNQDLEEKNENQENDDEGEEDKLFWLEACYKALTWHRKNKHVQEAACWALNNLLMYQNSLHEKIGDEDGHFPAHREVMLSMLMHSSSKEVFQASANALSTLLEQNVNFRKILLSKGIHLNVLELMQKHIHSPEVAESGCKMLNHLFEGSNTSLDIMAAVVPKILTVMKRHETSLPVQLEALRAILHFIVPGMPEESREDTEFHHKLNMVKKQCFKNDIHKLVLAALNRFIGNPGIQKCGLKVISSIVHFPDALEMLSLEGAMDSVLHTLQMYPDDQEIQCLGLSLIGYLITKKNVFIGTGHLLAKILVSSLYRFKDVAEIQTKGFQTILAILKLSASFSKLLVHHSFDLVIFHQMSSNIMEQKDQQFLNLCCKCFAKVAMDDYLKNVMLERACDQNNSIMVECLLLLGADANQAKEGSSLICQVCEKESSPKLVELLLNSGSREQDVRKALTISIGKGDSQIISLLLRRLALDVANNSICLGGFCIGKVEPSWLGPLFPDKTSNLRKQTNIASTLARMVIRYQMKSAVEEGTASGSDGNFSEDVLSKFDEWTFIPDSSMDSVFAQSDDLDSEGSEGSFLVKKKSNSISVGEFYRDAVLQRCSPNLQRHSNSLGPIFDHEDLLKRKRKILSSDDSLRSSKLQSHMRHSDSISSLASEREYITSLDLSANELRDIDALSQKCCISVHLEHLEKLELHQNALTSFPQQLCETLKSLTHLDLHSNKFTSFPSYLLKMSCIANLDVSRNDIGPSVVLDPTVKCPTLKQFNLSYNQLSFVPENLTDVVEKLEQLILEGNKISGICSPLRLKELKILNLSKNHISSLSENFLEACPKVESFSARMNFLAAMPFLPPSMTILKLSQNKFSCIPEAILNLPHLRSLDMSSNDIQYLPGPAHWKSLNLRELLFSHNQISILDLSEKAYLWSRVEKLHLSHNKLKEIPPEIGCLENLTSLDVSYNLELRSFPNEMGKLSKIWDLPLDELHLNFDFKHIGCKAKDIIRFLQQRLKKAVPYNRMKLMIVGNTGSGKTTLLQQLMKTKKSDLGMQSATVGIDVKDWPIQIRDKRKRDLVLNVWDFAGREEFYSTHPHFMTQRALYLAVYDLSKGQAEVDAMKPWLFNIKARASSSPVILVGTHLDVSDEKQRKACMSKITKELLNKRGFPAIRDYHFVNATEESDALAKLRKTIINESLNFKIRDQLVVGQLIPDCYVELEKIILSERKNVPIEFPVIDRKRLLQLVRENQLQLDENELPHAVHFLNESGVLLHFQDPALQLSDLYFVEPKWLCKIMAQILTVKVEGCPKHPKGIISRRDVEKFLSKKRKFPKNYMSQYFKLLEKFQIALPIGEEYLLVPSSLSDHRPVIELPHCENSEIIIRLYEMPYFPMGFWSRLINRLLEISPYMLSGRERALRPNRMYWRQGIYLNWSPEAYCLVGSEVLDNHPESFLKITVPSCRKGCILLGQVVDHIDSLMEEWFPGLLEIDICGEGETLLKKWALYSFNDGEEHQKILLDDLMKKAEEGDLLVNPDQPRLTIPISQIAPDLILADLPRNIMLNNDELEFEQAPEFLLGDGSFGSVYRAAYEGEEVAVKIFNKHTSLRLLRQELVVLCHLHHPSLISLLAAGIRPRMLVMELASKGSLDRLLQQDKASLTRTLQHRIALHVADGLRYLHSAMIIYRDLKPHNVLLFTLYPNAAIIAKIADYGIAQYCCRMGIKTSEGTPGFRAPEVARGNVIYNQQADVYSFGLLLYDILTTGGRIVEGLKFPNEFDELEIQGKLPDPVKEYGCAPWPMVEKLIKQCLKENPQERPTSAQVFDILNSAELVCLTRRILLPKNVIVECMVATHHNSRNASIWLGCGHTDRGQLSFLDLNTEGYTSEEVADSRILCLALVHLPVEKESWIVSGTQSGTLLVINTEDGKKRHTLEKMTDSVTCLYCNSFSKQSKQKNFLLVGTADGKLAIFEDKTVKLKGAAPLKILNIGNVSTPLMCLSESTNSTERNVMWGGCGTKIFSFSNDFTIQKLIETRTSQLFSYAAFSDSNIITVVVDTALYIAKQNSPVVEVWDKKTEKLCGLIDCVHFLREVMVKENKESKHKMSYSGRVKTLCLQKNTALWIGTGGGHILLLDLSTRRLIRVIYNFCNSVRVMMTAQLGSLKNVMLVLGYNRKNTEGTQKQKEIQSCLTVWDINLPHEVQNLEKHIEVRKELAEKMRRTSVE
UniProt Q9UHD2: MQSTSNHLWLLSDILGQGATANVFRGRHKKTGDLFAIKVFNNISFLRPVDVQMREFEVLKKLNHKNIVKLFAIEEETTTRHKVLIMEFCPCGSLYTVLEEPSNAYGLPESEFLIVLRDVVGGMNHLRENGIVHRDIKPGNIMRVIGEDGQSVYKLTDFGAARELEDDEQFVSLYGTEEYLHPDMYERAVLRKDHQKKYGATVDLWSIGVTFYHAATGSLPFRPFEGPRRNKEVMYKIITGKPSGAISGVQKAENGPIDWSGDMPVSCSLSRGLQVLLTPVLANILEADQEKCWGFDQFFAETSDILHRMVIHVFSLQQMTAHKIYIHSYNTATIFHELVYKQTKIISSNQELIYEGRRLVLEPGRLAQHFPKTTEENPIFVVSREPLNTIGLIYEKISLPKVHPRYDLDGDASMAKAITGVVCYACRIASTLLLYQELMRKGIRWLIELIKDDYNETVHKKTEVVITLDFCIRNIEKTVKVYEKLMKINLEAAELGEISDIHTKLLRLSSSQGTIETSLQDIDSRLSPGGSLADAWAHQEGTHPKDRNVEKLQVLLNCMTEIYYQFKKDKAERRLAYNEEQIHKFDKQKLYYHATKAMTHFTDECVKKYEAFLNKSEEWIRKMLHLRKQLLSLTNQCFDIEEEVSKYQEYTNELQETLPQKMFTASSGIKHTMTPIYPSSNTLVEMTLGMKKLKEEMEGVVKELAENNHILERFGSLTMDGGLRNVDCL

Tests used:
LRRK2 = LRRK2 (Homo sapiens, UniProt Q5S007); test: NanoBRET assay follow-up; format: cell-based; conditions: singlicate (n = 1) dose–response
TBK1 (NLuc-TBK1) = TBK1 (NLuc-TBK1) (Homo sapiens, UniProt Q9UHD2); test: NanoBRET cellular target engagement assay; format: cell-based
Method in brief: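 HEK293 cells were grown in DMEM with 10% FBS at 37 °C under 5% CO2, passaged every 72 h with trypsin and kept below confluency. Cells expressed NanoLuc fusions (DRAK1-NLuc or NLuc-TBK1). Dose–response was run per the manufacturer's protocol, with 0.5 μM tracer K-9 for DRAK1 and 0.5 μM tracer K-5 for TBK1. SEM was reported where assays were repeated.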

`Cc1nn(CC(F)(F)F)cc1Nc1ncc(Br)c(NCc2ccc(S(N)(=O)=O)cc2)n1` [GSK8612, 4-(((5-Bromo-2-((3-methyl-1-(2,2,2-trifluoroethyl)-1H-pyrazol-4-yl)amino)pyrimidin-4-yl)-amino)methyl)benzenesulfonamide, reference compound] was tested, and the “LRRK2 NanoBRET IC50” value (LRRK2) was “did not have any activity” and the “fold loss in potency, enzymatic versus NanoBRET, TBK1” value (TBK1 (NLuc-TBK1)) was < 10 fold.
